# Reference: US20020161202A1, “Apo-2DcR” (Genentech, Inc., priority 1997, published 2002)
# Legend:
# NF-κB [1] = experiment: NF-κB activity in MCF7 cells treated with soluble ligand; type: cell-based, human; conditions: 1 μg/ml, FIG. 12B
# NF-κB [2] = experiment: NF-κB activity in HeLa cells treated with soluble ligand; type: cell-based, human; conditions: 1 μg/ml, FIG. 12B
substance,measurement,setting,value
"TNF-alpha: tumor necrosis factor-α (Genentech, Inc.)",NF-κB activation in treated MCF7 cells,NF-κB [1],more pronounced activation
same,NF-κB activation in treated HeLa cells,NF-κB [2],more pronounced activation
